# Reference: patent US7060449
# T1: rat GALR2 (rat)
# T1 chain: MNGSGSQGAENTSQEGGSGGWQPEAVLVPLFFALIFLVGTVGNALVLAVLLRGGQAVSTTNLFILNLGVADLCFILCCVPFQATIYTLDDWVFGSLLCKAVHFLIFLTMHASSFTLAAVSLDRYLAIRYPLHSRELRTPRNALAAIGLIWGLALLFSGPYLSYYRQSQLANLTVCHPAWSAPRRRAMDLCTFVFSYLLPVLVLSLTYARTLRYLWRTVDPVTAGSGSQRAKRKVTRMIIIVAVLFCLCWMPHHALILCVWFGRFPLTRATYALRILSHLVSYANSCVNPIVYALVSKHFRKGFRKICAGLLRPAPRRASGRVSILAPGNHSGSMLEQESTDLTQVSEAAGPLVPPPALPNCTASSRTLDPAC
# T2: human GALR2 (human)
# T2 chain: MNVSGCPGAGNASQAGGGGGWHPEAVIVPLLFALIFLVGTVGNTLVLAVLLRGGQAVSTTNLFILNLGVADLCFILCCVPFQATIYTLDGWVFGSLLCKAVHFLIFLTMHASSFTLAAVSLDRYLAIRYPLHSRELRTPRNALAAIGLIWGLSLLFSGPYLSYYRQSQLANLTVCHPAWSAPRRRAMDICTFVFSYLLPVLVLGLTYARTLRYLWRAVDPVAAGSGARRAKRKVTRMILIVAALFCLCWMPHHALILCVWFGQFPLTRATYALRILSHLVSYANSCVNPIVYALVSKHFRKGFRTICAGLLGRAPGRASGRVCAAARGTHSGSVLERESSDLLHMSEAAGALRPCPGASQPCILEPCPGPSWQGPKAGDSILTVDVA
# Experiments:
# Conditions in all cases: modification not given
# [1] = target: T1, rat GALR2 (rat); assay: competition, CHO
# [2] = target: T1, rat GALR2 (rat); assay: competition, COS-7
# [3] = target: T2, human GALR2 (human); assay: competition
Ki [1],Ki [2],Ki [3],Binder
0.52 nM,0.52 nM,–,"GWTLNSAGYLLGPHAIDNHRSFSDKHGLT [rat galanin, P10683]"
–,–,15 nM,"GWTLNSAGYLLGPHAI [galanin(1-16), P07480]"
1.2 nM,–,–,"GWTLNSAGYLLGPHAVGNHRSFSDKNGLTS [human galanin, P22466]"
